As a reminder, the Ki is the dissociation constant of the complex between target and ligand, obtained from inhibition or displacement. A high value points to a looser hold on the target.

Protein sequences, listed by entry. Tags and fused reporters are not part of them.
UniProt P19327, whole entry: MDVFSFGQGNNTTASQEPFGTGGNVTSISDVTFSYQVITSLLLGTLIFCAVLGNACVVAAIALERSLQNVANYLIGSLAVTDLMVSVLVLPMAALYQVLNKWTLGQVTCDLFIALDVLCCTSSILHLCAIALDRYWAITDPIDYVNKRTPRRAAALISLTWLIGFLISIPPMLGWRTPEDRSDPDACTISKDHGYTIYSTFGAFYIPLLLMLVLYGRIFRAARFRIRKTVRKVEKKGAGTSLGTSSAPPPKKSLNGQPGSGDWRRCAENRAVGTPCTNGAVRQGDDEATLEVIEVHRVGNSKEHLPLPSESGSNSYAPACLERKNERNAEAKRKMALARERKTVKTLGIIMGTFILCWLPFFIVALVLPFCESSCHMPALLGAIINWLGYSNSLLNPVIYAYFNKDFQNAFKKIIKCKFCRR

Drawing on ChEMBL document CHEMBL1131239, “Orally active benzamide antipsychotic agents with affinity for dopamine D2, serotonin 5-HT1A, and adrenergic alpha1 receptors” (J Med Chem, 1998), this text covers Ki for two compounds.

The assay addresses 5-hydroxytryptamine receptor 1A (Rattus norvegicus, UniProt P19327). As to the kind of experiment: Compound was evaluated for its binding affinity against 5-hydroxytryptamine 1A receptor from rat cerebral cortex. The class given is tissue-based.

On to `COCCN1CCN(Cc2cccc(C(=O)N3CCCCCC3)c2)CC1`, for which the Ki is over 1000 nM. As for `CN1CCN(Cc2cccc(C(=O)N3CCCCC3)c2)CC1`, the Ki is over 1000 nM.
